Assay results reported in patent publication US10751301B2, “Methods for inhibiting conversion of choline to trimethylamine (TMA)” (The Procter & Gamble Company, priority 2017, dated 2020).

Protein sequences, listed by entry. Tags and fused reporters are not part of them. Lines headed by an entry give the natural chain unless they say otherwise; changes in a name come on top.
UniProt Q30W70: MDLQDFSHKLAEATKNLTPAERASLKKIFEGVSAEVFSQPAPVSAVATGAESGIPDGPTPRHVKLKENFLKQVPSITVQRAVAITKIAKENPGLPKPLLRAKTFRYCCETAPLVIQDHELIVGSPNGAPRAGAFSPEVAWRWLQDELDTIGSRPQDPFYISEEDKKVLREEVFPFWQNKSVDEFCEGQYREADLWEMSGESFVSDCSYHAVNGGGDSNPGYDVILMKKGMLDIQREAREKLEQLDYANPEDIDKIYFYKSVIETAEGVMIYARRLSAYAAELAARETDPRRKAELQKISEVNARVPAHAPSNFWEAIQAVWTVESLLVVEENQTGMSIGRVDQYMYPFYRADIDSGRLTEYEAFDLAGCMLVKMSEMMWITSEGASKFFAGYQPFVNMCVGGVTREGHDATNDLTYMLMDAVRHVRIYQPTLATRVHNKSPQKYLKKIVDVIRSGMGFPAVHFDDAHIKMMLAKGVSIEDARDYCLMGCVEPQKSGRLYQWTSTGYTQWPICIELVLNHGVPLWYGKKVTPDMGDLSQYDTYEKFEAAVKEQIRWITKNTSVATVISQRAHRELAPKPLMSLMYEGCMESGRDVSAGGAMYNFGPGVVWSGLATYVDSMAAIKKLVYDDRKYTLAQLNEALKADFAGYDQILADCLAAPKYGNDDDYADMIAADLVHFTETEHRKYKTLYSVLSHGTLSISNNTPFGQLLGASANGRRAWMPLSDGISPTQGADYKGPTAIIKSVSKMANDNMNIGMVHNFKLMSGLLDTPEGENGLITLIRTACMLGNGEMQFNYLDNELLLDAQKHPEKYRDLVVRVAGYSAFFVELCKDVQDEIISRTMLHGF

Molecular target: recombinant D. alaskensis Cut C/D lysate (Oleidesulfovibrio alaskensis, UniProt Q30W70)
Details: read-out: IC50 (mol/L) recombinant D. alaskensis Cut C/D lysate

Structure (SMILES): C[S+](CCO)CCCCl (stereo not shown)
- IC50: 6.7 µM
